The results in this text go back to patent US20100099613A1 (published 2010).

The assay has as its target HLA-A01 (Homo sapiens, UniProt P04439, A114D/A174V/A182V/D101N/E190D/Q94H/R68K/S129P/V100A/V91M/W191G). Nature of the assay: HLA class I competition binding assay using soluble HLA (125I probe peptide). The conditions noted are these: for Ki (nM): HLA-A0101.

As a reminder, the Ki is the equilibrium dissociation constant of an inhibitor or competing ligand from its target. Read a high Ki as a looser hold on the target. Molecule `CC(C)[C@H](NC(=O)[C@H](CCCCN)NC(=O)[C@@H](NC(=O)[C@H](CO)NC(=O)[C@@H](N)CCCCN)[C@@H](C)O)C(=O)N1CCC[C@H]1C(=O)N[C@@H](C)C(=O)N[C@@H](C)C(=O)N[C@@H](Cc1ccc(O)cc1)C(=O)O` gave an inhibition constant (Ki) of 858 nM.

Usually IC50 stands for the concentration that gives 50% inhibition. A low value points to inhibition by little substance. In turn, `CSCC[C@H](NC(=O)[C@H](C)NC(=O)[C@H](CCC(=O)O)NC(=O)[C@@H](NC(=O)[C@@H](N)Cc1ccccc1)[C@@H](C)O)C(=O)N[C@H](C(=O)N[C@@H](CCCNC(=N)N)C(=O)N[C@@H](Cc1ccc(O)cc1)C(=O)N[C@@H](CO)C(=O)N[C@@H](C)C(=O)O)[C@@H](C)O` had an IC50 of 464 nM and a Ki of 1860 nM.

As for `CC[C@H](C)[C@H](NC(=O)[C@@H](NC(=O)[C@H](Cc1ccccc1)NC(=O)[C@@H](NC(=O)[C@@H]1CCCN1C(=O)[C@H](CC(=O)O)NC(=O)[C@H](CC(C)C)NC(=O)[C@@H](N)CO)[C@@H](C)O)[C@@H](C)O)C(=O)N[C@@H](CCC(=O)O)C(=O)N[C@H](C(=O)O)[C@@H](C)O`, the “Ki (nM)” value is “high”.

For `CSCC[C@H](N)C(=O)NCC(=O)N[C@@H](CO)C(=O)N[C@@H](CO)C(=O)N[C@@H](Cc1ccc(O)cc1)C(=O)NCC(=O)N[C@@H](Cc1ccccc1)C(=O)N[C@@H](CCC(N)=O)C(=O)N[C@@H](Cc1ccc(O)cc1)C(=O)O`, the Ki came out at 917 nM.

On to `CSCC[C@H](NC(=O)[C@H](CC(C)C)NC(=O)[C@H](CC(=O)O)NC(=O)[C@H](C)NC(=O)[C@H](Cc1ccccc1)NC(=O)CNC(=O)[C@H](CS)NC(=O)[C@@H](NC(=O)[C@@H](N)CC(C)C)[C@@H](C)O)C(=O)O`, for which the Ki amounted to 759 nM.

For the molecule `CSCC[C@H](NC(=O)[C@H](C)NC(=O)[C@H](CCC(=O)O)NC(=O)[C@@H](NC(=O)[C@H](Cc1ccccc1)NC(=O)[C@@H](NC(=O)[C@@H](N)CCCNC(=N)N)C(C)C)[C@@H](C)O)C(=O)N[C@H](C(=O)N[C@@H](CCCNC(=N)N)C(=O)N[C@@H](Cc1ccc(O)cc1)C(=O)O)[C@@H](C)O`, the affinity, expressed as Ki, was 3490 nM.

`CC(C)[C@H](NC(=O)[C@H](C)NC(=O)[C@@H]1CCCN1C(=O)[C@@H]1CCCN1C(=O)[C@H](CO)NC(=O)[C@H](CO)NC(=O)[C@H](CC(N)=O)NC(=O)[C@H](CC(=O)O)NC(=O)[C@@H](NC(=O)[C@@H](N)Cc1ccccc1)[C@@H](C)O)C(=O)O` came in with an IC50 of 45 nM and a Ki of 45 nM.

In turn, `C[C@H](NC(=O)[C@@H]1CCCN1C(=O)[C@@H]1CCCN1C(=O)[C@H](CO)NC(=O)[C@H](CO)NC(=O)[C@H](CC(N)=O)NC(=O)[C@H](CC(=O)O)NC(=O)[C@@H](NC(=O)[C@@H](N)Cc1ccccc1)[C@@H](C)O)C(=O)O` yielded a concentration for half-maximal inhibition (IC50) of 10 nM and a Ki of 10 nM.

As for `CC(C)[C@H](NC(=O)[C@H](CCCNC(=N)N)NC(=O)[C@H](CCCCN)NC(=O)CNC(=O)[C@H](CO)NC(=O)[C@H](C)NC(=O)[C@@H](N)CC(=O)O)C(=O)N[C@@H](Cc1ccc(O)cc1)C(=O)N[C@@H](Cc1ccc(O)cc1)C(=O)O`, the Ki is 5630 nM.

On to `CSCC[C@H](NC(=O)[C@H](CC(C)C)NC(=O)[C@H](C)NC(=O)[C@H](CC(=O)O)NC(=O)[C@@H](NC(=O)[C@H](C)N)[C@@H](C)O)C(=O)N[C@H](C(=O)NCC(=O)N[C@@H](Cc1ccc(O)cc1)C(=O)N[C@H](C(=O)O)[C@@H](C)O)[C@@H](C)O`, for which the IC50 was 227 nM and the Ki was determined as 227 nM.

Regarding LCECYDAGC, the “Ki (nM)” value was “high”.

Turning to `CC[C@H](C)[C@H](NC(=O)[C@H](CC(N)=O)NC(=O)CNC(=O)[C@H](CC(C)C)NC(=O)[C@H](Cc1c[nH]c2ccccc12)NC(=O)[C@H](CO)NC(=O)[C@@H](N)CC(N)=O)C(=O)N[C@H](C(=O)N[C@@H](CCSC)C(=O)N[C@@H](Cc1ccc(O)cc1)C(=O)O)[C@@H](C)CC`, the affinity corresponds to a Ki of 1860 nM.

Regarding `CC(C)C[C@H](NC(=O)[C@@H]1CCCN1C(=O)[C@@H](NC(=O)[C@@H](NC(=O)[C@@H]1CCCN1C(=O)[C@H](CC(=O)O)NC(=O)[C@H](CCCNC(=N)N)NC(=O)[C@@H](N)[C@@H](C)O)[C@@H](C)O)[C@@H](C)O)C(=O)N[C@@H](C)C(=O)N[C@@H](CCCNC(=N)N)C(=O)O`, the “Ki (nM)” value is “high”.
